Measured values published in patent US20260069707A1, “COMBINATION THERAPY WITH ANTIBODY-DRUG CONJUGATES AND HYALURONIDASES” (HALOZYME, INC., priority 2024, published 2026).

Test: Calculation of free payload:ADC following ADC administration
Conditions: Concentration (weight/mL) basis
Method: Antibody drug conjugates with thiol-malimide conjugation undergo deconjugation following administration. To assess this deconjugation, free payload: ADC was calculated rather than reverse, because for completely stable antibody, ADC:free payload would be infinity.
Antibody drug conjugates with thiol-malimide conjugation undergo deconjugation following administration. To assess this deconjugation, free payload: ADC was calculated for specific antibody drug conjugates including Trastuzumab, Polatuzumab, Enfortumab and Tisotumab.

Substance: Trastuzumab deruxtecan (Enhertu)
- free payload: ADC, AUC: 0.00444%
- free payload: ADC, Cmax: 0.00413%
